Test: particle size distribution of nebulized aerosol, laser diffraction
Assay type: physicochemical
Settings: solutions in WFI 40 to 120 mg/ml, fill 2 to 4 ml

median particle size (volume median diameter): 2 to 3 µM
Substance: gentamicin sulfate

— patent publication US9205050B2, “Antibiotic formulations, unit doses, kits and methods” (Bayer Intellectual Property GmbH, priority 2005, dated 2015)
